scFv variants of Ab-91 (heavy chain) against a SARS-CoV-2 spike peptide

Source: Engelhart et al. 2022 (doi:10.1038/s41597-022-01779-4), MIT Lincoln Laboratory and A-Alpha Bio; data file from the FLAb repository.

Antigen: PDVDLGDISGINAS, a 14-residue peptide of the SARS-CoV-2 spike HR2 region.

Ab-91 is the parent antibody, in scFv form: VL, then a (GGGGS)3 linker, then VH. The light chain is unchanged in all variants.
VL: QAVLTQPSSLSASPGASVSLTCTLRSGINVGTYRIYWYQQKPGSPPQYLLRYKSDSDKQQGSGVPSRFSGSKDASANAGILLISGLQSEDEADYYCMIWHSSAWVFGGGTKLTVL
VH: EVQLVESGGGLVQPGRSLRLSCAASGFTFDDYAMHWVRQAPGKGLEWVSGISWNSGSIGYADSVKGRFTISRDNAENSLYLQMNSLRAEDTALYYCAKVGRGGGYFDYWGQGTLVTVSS

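In library AAYL51, one, two or three CDR residues were substituted; doubles and triples were drawn at random. The assay is AlphaSeq: two haploid yeast populations carry antibody and antigen on their surface. The frequency of each diploid, read from paired DNA barcodes, reflects how well the two displayed proteins bind. A regression on co-assayed BCL2-family reference pairs converts the normalised counts of each replicate to an apparent Kd. Each pool was mated in three replicate cultures.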

The parent's heavy chain CDRs are GFTFDDYAMH, GISWNSGSIGYADSVK, VGRGGGYFDY; each variant's own CDRs replace them letter for letter.
All variants listed here change R101 of the VH, counted from its first residue.
The Kd shown is the geometric mean over detected replicates; a lower Kd is a better binder.
"no signal" means that the variant was in the library but no mating with the target was seen in any replicate; the authors take this as a sign of poor binding, and no number exists.
Parent in this assay: reference entry 72 nM, copy in this library 7.5 nM.
Nonspecific signal, from three strains lacking the peptide, appeared in 21% of pairings of library AAYL51, centred on 34 µM (5% of these signals below 1.8 µM); values are not corrected for it. The control count says in how many pairings with the empty strains this scFv gave a signal.

CDR-H1	CDR-H2	CDR-H3	Kd (apparent)	replicates with signal	control signals
GFTFDDYAMH	GCSWNSGSIGYADSVC	VGTGGGYFDY	no signal	0 of 3	0 of 9
GFTFDDLAMH	GISWNSGSIGYADSVK	VGAGGGYFDY	280 µM	3 of 3	9 of 9
GFTFDDYAMH	GIIWNNGSIGYADSVK	VGDGGGYFDY	36 µM	2 of 3	3 of 9
GFTFDDYAMH	GISWNSGSIGYADSTK	VGIGGKYFDY	16 µM	1 of 3	0 of 9
GFTFDDYAMH	GESWNSGSIGYADSVF	VGGGGGYFDY	no signal	0 of 3	0 of 9
GFTFDDYAMH	GWSWNSGSIGYADSNK	VGGGGGYFDY	no signal	0 of 3	3 of 9
GFTTDDYAMH	GISWNSGSIGYADSVK	VGCGGGYLDY	no signal	0 of 3	0 of 9
GFTFDDVAMH	GISWNSGSIGYADSVK	VGLGGGYFVY	6.3 nM	3 of 3	3 of 9
GFTFDDYAMH	GISWNSGSIGYEDSVK	VGWGGGYFDY	72 nM	3 of 3	0 of 9
GNTFDDYAMH	GISWNSGSRGYADSVK	VGSGGGYFDY	no signal	0 of 3	0 of 9
GFTFDDYAMH	GIHWNSGSIGYADSVK	VEFGGGYFDY	52 µM	1 of 3	1 of 9
GFTFDDYAMH	GISWNSGDIGYADSVK	GGPGGGYFDY	16 µM	2 of 3	1 of 9
GFTFDDYAIH	GISWNEGSIGYADSVK	VGPGGGYFDY	no signal	0 of 3	4 of 9
GFTFDDYAMH	VISWNSGSIGYADSVK	VGVGTGYFDY	190 µM	1 of 3	5 of 9
GFTFDDYAMH	GPSWVSGSIGYADSVK	VGIGGGYFDY	no signal	0 of 3	0 of 9
GFTFDDYAMH	HISWNSGSIGYADSVK	VGHGGGYFDI	no signal	0 of 3	0 of 9
GFTFDDRAMH	GISWNSGSGGYADSVK	VGKGGGYFDY	no signal	0 of 3	2 of 9
GFTFDDYLMH	GISWNSGSVGYADSVK	VGWGGGYFDY	no signal	0 of 3	1 of 9
GFTFDDYAHT	GISWNSGSIGYADSVK	VGGGGGYFDY	2.9 µM	1 of 3	2 of 9
GFTFDDYAMH	GISWNSGSIGCADSVK	VPYGGGYFDY	1.5 µM	1 of 3	0 of 9
GFTSDDYSMH	GISWNSGSIGYADSVK	VGGGGGYFDY	no signal	0 of 3	1 of 9
GFTYDDYAMH	GISHNSGSIGYADSVK	VGSGGGYFDY	710 nM	3 of 3	7 of 9
GFTFDDYAMH	GHSWNSGSFGYADSVK	VGKGGGYFDY	37 µM	3 of 3	2 of 9
GFTFDDYAMH	GISWGSGSIGYADSVK	VGCGGGYFDY	no signal	0 of 3	0 of 9
GFTFDDYAMH	GISWWSGSIGQADSVK	VGGGGGYFDY	2.0 mM	1 of 3	4 of 9
GFTFDDYAWH	GISWNSGSIGYADSVK	CGQGGGYFDY	no signal	0 of 3	0 of 9
GFTFDDYAMH	GISWASGSIGDADSVK	VGPGGGYFDY	53 µM	3 of 3	4 of 9
GFTFDDYAMH	GISWNSGSIPYADSVK	VGEGGQYFDY	470 µM	1 of 3	1 of 9
GFTFDDYAMH	GITWNSGSIGYADSVK	VGCGGPYFDY	no signal	0 of 3	0 of 9
GFTFDDYAMH	GIDWNSGSIGYADSVK	VGGGGGYFDS	2.9 µM	2 of 3	2 of 9
GFTDDDYAMH	GISWNSGSIGYADSVK	VGGGGGYFDY	17 µM	2 of 3	3 of 9
NFTFDDYAMH	GISWNNGSIGYADSVK	VGCGGGYFDY	240 µM	1 of 3	4 of 9
CFTFDDYAMQ	GISWNSGSIGYADSVK	VGPGGGYFDY	no signal	0 of 3	5 of 9
GFTTDDYAMH	GISWNLGSIGYADSVK	VGNGGGYFDY	58 µM	1 of 3	0 of 9
GFTFDDYAMH	GISWNSGSIGYASSVK	VGNGGGYFTY	no signal	0 of 3	0 of 9
GFTFDDQAMH	GITWNSGSIGYADSVK	VGQGGGYFDY	91 µM	3 of 3	6 of 9
GFTFDDYAMH	GISWNSGSIGTADSYK	VGYGGGYFDY	no signal	0 of 3	2 of 9
GFTFDMYAMH	GISWNSGSIGYADSVK	VNMGGGYFDY	no signal	0 of 3	0 of 9
GFTADDYAMH	GISWNFGSIGYADSVK	VGKGGGYFDY	47 µM	1 of 3	1 of 9
GFTFVDYAMH	GISWNSGSIGYADSVK	VGQGGGYFDN	5.4 µM	3 of 3	7 of 9
WFTFDDYAMH	GISWNSGSIAYADSVK	VGPGGGYFDY	no signal	0 of 3	1 of 9
GFTMDDYAMH	GISWNSGSIGYADSVK	VGQGGVYFDY	4.3 µM	2 of 3	3 of 9
GFTFDDYAMH	GISWNSGSIGYADSVK	VGNGGGYFDY	270 nM	3 of 3	5 of 9
GFTFDDYAMH	CISWNQGSIGYADSVK	VGSGGGYFDY	3.0 mM	1 of 3	5 of 9
NFTFDDYAMH	GISRNSGSIGYADSVK	VGVGGGYFDY	3.7 µM	3 of 3	3 of 9